Data published in US9422289B2, “Use of pteridine derivatives for the treatment of increased intracranial pressure, secondary ischemia, and disorders associated with an increased level of cytotoxic reactive oxygen species” (VASOPHARM GMBH, priority 2003, dated 2016).

Target: T1, ETB (h) (Homo sapiens, UniProt P24530)
T1 sequence (P24530 27-442): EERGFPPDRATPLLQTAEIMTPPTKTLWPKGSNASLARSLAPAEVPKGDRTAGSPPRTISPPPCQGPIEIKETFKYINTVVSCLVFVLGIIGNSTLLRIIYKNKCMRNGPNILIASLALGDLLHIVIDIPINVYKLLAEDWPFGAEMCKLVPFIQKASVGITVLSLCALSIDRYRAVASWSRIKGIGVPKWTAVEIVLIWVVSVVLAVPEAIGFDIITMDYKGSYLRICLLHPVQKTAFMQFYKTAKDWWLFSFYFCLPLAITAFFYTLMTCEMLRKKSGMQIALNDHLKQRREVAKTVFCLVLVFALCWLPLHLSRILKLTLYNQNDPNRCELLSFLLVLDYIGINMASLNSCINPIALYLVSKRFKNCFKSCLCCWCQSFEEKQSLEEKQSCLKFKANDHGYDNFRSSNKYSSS
Assay: Radioligand binding, Cerep 825-2h
Settings: reference compound

endothelin-3
IC50: 0.12 nM
